Source: ChEMBL document CHEMBL1145459, “Novel vanilloid receptor-1 antagonists: 2. Structure-activity relationships of 4-oxopyrimidines leading to the selection of a clinical candidate” (J Med Chem, 2007)

Amino acid sequences for entries named in this document (tags omitted).
UniProt O35433, whole entry: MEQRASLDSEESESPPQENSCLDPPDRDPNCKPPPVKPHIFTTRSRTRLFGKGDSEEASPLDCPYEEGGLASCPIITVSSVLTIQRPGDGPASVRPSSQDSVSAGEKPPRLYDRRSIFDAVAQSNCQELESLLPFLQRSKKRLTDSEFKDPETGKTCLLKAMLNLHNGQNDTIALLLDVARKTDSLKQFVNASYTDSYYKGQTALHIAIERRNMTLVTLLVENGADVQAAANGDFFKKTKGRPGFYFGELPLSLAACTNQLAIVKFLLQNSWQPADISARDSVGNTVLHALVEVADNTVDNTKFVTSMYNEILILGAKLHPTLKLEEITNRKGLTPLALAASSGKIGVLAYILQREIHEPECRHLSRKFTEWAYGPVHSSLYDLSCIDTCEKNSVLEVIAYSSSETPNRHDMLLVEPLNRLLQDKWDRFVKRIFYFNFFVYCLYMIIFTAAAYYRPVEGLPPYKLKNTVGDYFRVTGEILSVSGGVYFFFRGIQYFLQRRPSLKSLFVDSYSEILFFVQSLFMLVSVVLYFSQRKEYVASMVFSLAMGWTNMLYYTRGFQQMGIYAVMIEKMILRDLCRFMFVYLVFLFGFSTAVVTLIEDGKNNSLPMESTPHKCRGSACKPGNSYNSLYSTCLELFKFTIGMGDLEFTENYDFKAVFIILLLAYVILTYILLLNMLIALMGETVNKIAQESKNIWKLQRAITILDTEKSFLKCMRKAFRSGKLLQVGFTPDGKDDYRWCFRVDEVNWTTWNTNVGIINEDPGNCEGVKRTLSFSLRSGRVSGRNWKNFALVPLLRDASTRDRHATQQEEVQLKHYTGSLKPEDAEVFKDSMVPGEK

Biological target: Transient receptor potential cation channel subfamily V member 1 (Rattus norvegicus, UniProt O35433)
Assay: Antagonist activity at rat TRPV1 expressed in CHO cells assessed as inhibition of capsaicin-induced calcium influx
Assay type: functional, cell-based

Compound	IC50 [nM]
CCC(=O)Nc1nc2c(Oc3cc(-c4ccc(C(F)(F)F)cc4)ncn3)cccc2s1	1100
FC(F)(F)c1ccc(-c2cc(Oc3ccc4ccccc4n3)ncn2)cc1	730
